Patent US8987242B2, “Morpholinone compounds as factor IXA inhibitors” (Merck Sharp & Dohme Corp., priority 2008, dated 2015)

The chains behind the UniProt entries cited, without tags or fusion partners. Residues count along the entry.
UniProt P00740, 227-461: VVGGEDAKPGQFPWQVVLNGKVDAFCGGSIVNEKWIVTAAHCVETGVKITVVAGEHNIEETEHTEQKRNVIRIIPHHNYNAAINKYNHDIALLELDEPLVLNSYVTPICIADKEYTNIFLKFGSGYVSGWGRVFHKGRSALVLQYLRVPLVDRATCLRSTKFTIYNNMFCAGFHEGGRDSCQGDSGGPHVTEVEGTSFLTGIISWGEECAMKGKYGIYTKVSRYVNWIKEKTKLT
UniProt P00740, 47-191 partner: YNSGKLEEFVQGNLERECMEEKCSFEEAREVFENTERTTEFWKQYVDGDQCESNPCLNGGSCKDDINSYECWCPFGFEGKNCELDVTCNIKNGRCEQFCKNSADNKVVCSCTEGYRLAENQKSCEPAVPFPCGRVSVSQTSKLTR

Molecular target: human factor IXa (Homo sapiens (Human), UniProt P00740)
Assay: Determination of inhibitory activity against factor IXa (SPECTROFLUOR FIXa fluorogenic substrate enzyme assay)
Assay type: biochemical
Conditions: human factor IXa 2.0 μg/ml, SPECTROFLUOR FIXa 100 μM, 60 minutes at room temperature, pH 8.0
Method: Inhibitory activity against factor IXa was tested using the substrate SPECTROFLUOR FIXa (american diagnostica inc.; 500 West Avenue, Stamford, Conn. 06902 USA; Pr. No. 299F) and human factor IXa (american diagnostica inc.; Pr. No. 449b). Test substances dissolved in buffer A (50 mM α,α,α-tris(hydroxymethyl)methylamine (Tris), 100 mM NaCl, 5 mM CaCl2, 15% (v/v) ethylene glycol, pH 8.0) were mixed with factor IXa (2.0 μg/ml final concentration). The enzyme reaction was started by addition of SPECTROFLUOR FIXa (100 μM final concentration). After incubation for 60 minutes at room temperature, the reaction was stopped by the addition of 20% (v/v) acetic acid solution, and then measured the fluorescence value (Excitation Wavelength: 355 nm, Emission Wavelength; 460 nm) in a microtiter plate reader (ARVO 1420 Multilabel Counter; PerkinElmer).
The IC50 was calculated from a dilution series of the test substance with the aid of the software, Symix Assay Explorer (Symyx Technologies, Inc.).

Compound: Nc1noc2cc(NC(=O)[C@H](O)[C@H]3OCCN(c4cccc(S(F)(F)(F)(F)F)c4)C3=O)ccc12 [Example aa150, [3-[2(R)-[2-[(3-Amino-1,2-benzisoxazol-6-yl)amino]-1(R)-hydroxy-2-oxoethyl]-3-oxo-4-morpholinyl]phenyl] pentafluorosulfur]
- IC50: 83 nM
